# Patent publication US9371363B2, “Peptides and their use” (Novabiotics Limited, priority 2007, dated 2016)
# Key:
# Format in all cases: cell-based
# P. acnes = system: P. acnes
# Method: (§1) Broth Dilution Antibacterial Susceptibility Testing
# (§2) The sensitivity of relevant bacterial strains to the peptides (was determined using Clinical Laboratory Standard Institute (CLSI; formerly NCCLS) Approved Standards. Bacterial susceptibility was tested using “Methods for Dilution Antimicrobial Susceptibility Tests for Bacteria That Grow […]; Approved Standard—Seventh Edition M7-A7”
# S. aureus = system: S. aureus
# Method: as §1, §2
# Ps. aeruginosa = system: Ps. aeruginosa
# Method: as §1, §2
Compound,"Minimum Inhibitory Concentration, antimicrobial activity, P. acnes (P. acnes)","Minimum Inhibitory Concentration, antimicrobial activity, S. aureus (S. aureus)","Minimum Inhibitory Concentration, antimicrobial activity, Ps. aeruginosa (Ps. aeruginosa)"
"N=C(N)NCCC[C@H](NC(=O)[C@H](CCCNC(=N)N)NC(=O)[C@H](CCCNC(=N)N)NC(=O)[C@H](CCCNC(=N)N)NC(=O)[C@H](CCCNC(=N)N)NC(=O)[C@H](CCCNC(=N)N)NC(=O)[C@H](CCCNC(=N)N)NC(=O)[C@H](CCCNC(=N)N)NC(=O)[C@H](CCCNC(=N)N)NC(=O)[C@H](CCCNC(=N)N)NC(=O)[C@H](CCCNC(=N)N)NC(=O)[C@H](CCCNC(=N)N)NC(=O)[C@H](CCCNC(=N)N)NC(=O)[C@H](CCCNC(=N)N)NC(=O)[C@@H](N)CCCNC(=N)N)C(=O)O [NP319, RRRRRRRRRRRRRRR (SEQ ID NO: 15)]",<0.0156 mM,0.125 mM,
"N=C(N)NCCC[C@H](NC(=O)[C@H](CCCNC(=N)N)NC(=O)[C@H](CCCNC(=N)N)NC(=O)[C@H](CCCNC(=N)N)NC(=O)[C@H](CCCNC(=N)N)NC(=O)[C@H](CCCNC(=N)N)NC(=O)[C@H](CCCNC(=N)N)NC(=O)[C@H](CCCNC(=N)N)NC(=O)[C@H](CCCNC(=N)N)NC(=O)[C@H](CCCNC(=N)N)NC(=O)[C@H](CCCNC(=N)N)NC(=O)[C@H](CCCNC(=N)N)NC(=O)[C@H](CCCNC(=N)N)NC(=O)[C@H](CCCNC(=N)N)NC(=O)[C@@H](N)CCCNC(=N)N)C(=O)O [NP352, RRRRRRRRRRRRRRR (SEQ ID NO: 15)]",,,0.0625 mM
